Yeast mating assay 2: variants of the scFv Ab-91

All variants were tested on one target, the spike HR2 peptide PDVDLGDISGINAS (SARS-CoV-2).

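Phage display of a naive human antibody library on the peptide gave the parent. AAYL51 was designed without a model: most single CDR substitutions and a random sample of double and triple ones. AlphaSeq pools MATa yeast showing the antibodies with MATalpha yeast showing the peptide. After mating in shaken culture at 30 °C for 16 h, diploids were selected and their barcode pairs sequenced. The ratio of observed to expected reads was calibrated, replicate by replicate, on BCL2-family standards whose Kd was known from biolayer interferometry. Mating was done three times.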

Parent: Ab-91, a human scFv built as VL, three GGGGS repeats, VH. Only the CDRs of the heavy chain vary.
VL: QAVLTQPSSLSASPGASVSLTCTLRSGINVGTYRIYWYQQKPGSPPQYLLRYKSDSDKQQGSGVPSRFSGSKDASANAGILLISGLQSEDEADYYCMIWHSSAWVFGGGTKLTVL
VH: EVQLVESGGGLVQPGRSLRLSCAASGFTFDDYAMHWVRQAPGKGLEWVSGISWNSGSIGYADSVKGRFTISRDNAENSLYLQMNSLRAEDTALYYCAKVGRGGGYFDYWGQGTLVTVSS

The whole VH of each variant is written out. Values are log10 of the apparent Kd in nM; lower means stronger binding. "n.d." means that the variant was in the library but no mating with the target was seen in that replicate; the authors take this as a sign of poor binding, and no number exists.

| VH | replicates, log10 nM | signal with controls |
|---|---|---|
| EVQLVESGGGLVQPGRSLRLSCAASGFTFDWGAMHWVRQAPGKGLEWVSGIFWNSGSIGYADSVKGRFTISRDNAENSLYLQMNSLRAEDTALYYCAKVGRGGGYFDYWGQGTLVTVSS | n.d. / n.d. / n.d. | 0/9 |
| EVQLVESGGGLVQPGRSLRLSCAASGFTFDDWAMHWVRQAPGKGLEWVSIISWNSGSHGYADSVKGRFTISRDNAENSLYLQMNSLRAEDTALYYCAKVGRGGGYFDYWGQGTLVTVSS | n.d. / 3.85 / n.d. | 1/9 (4.23) |
| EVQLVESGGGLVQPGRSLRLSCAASVFTFDDYAMHWVRQAPGKGLEWVSGWSWNSGSIGYADSVKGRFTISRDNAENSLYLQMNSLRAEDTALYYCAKVGQGGGYFDYWGQGTLVTVSS | 3.45 / n.d. / n.d. | 1/9 (3.65) |
| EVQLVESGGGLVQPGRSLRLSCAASGFTFDDYHMHWVRQAPGKGLEWVSGISWNSGSIGYADSVWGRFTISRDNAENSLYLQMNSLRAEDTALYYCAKVGRGGGEFDYWGQGTLVTVSS | n.d. / n.d. / n.d. | 0/9 |
| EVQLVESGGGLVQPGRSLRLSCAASGFTFDEYAMHWVRQAPGKGLEWVSGISWNSGSWGYADCVKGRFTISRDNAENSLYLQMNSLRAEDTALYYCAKVGRGGGYFDYWGQGTLVTVSS | 2.78 / 2.32 / 1.94 | 2/9 (4.86) |
| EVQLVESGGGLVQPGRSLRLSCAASGFTFDDYAMNWVRQAPGKGLEWVSGISWNSDSIGYADSVKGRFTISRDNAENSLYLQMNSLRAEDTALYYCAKVGRGGGYFDFWGQGTLVTVSS | n.d. / n.d. / n.d. | 1/9 (4.72) |
| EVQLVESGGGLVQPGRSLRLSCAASGDTFDNYAMHWVRQAPGKGLEWVSGISWNSGSIGYADSVLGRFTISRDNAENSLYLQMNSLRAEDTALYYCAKVGRGGGYFDYWGQGTLVTVSS | 4.26 / 5.48 / n.d. | 5/9 (4.56) |
| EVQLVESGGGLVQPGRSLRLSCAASGFMFDDYAMHWVRQAPGKGLEWVSGISWNSGEIGYADSVKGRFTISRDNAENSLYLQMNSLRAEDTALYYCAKVGRGGGYFDYWGQGTLVTVSS | n.d. / n.d. / n.d. | 0/9 |
| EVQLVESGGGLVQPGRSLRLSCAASGFTFDDYAMLWVRQAPGKGLEWVSGISDNSGSIGYADSVGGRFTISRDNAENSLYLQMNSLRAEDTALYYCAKVGRGGGYFDYWGQGTLVTVSS | n.d. / n.d. / n.d. | 0/9 |
| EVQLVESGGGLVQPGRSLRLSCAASAFTFDDYAMHWVRQAPGKGLEWVSGISWNCCSIGYADSVKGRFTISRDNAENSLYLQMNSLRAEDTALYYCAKVGRGGGYFDYWGQGTLVTVSS | 3.42 / 6.09 / 4.39 | 2/9 (4.06) |
| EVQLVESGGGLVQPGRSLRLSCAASGFTFDDYAMHWVRQAPGKGLEWVSGISWNQPSIGYADSVKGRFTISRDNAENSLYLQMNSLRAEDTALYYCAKVGVGGGYFDYWGQGTLVTVSS | n.d. / n.d. / n.d. | 0/9 |
| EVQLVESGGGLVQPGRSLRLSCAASGFTFDDYAMTWVRQAPGKGLEWVSMISWNSGSIGYADSVKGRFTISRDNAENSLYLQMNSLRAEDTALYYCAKVGRGGGYFDDWGQGTLVTVSS | n.d. / n.d. / 2.53 | 0/9 |
| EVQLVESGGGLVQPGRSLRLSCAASGFTFDDYAMHWVRQAPGKGLEWVSGISWNSGSIGYADSVDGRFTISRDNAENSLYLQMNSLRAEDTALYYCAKVGRGGTTFDYWGQGTLVTVSS | 5.36 / 6.46 / 4.16 | 5/9 (4.62) |
| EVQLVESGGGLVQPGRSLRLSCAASGFTFDDGAMHWVRQAPGKGLEWVSGISWNSGSIGYPDSMKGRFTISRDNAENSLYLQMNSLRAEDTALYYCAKVGRGGGYFDYWGQGTLVTVSS | 4.33 / 4.48 / 4.76 | 6/9 (4.96) |
| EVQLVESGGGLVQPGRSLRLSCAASGFTFDDYAMHWVRQAPGKGLEWVSGIGWNSGSIGYAKSVKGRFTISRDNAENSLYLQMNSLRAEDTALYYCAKVGRGGGYQDYWGQGTLVTVSS | 4.56 / n.d. / n.d. | 5/9 (4.87) |
| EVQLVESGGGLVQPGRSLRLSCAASGFTFDDYAMNWVRQAPGKGLEWVSGISWNSGSIGYADSVKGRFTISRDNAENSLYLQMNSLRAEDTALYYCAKVRRGGGYFQYWGQGTLVTVSS | n.d. / n.d. / n.d. | 0/9 |
| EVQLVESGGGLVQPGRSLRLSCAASGFTFEDYAMAWVRQAPGKGLEWVSGISWNSGSIGYADSVKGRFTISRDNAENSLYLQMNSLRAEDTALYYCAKVGRGGGYFDYWGQGTLVTVSS | n.d. / n.d. / n.d. | 4/9 (5.26) |
| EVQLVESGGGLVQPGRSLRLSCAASGFTFDDYAMHWVRQAPGKGLEWVSSISWNSGSIGIADSVKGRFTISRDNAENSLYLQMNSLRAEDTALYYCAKVGRGGGYFDYWGQGTLVTVSS | 5.16 / 5.07 / n.d. | 6/9 (5.04) |
| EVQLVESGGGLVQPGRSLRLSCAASGFTFDDYAMHWVRQAPGKGLEWVSQISWNNGSIGYEDSVKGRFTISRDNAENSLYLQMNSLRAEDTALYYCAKVGRGGGYFDYWGQGTLVTVSS | n.d. / n.d. / n.d. | 3/9 (4.04) |
| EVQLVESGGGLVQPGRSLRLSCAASGFTSDDYAMHWVRQAPGKGLEWVSGISWNSGSIGYADSVKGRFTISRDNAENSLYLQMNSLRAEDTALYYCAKPGRGGGYFDYWGQGTLVTVSS | n.d. / n.d. / n.d. | 0/9 |
| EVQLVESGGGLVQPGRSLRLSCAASGFTFDDYAMRWVRQAPGKGLEWVSGISWNEGSIGYADSVKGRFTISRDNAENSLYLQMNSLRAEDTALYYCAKVTRGGGYFDYWGQGTLVTVSS | n.d. / n.d. / n.d. | 1/9 (5.56) |
| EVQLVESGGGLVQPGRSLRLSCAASGFTFDDYAMHWVRQAPGKGLEWVSGISWNSGSIGYADTVKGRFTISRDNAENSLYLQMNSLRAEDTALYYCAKVGRGGRYFDEWGQGTLVTVSS | 2.31 / 2.36 / 2.14 | 7/9 (5.08) |

2 of these entries, quoted again:

VH,"replicates, log10 nM",signal with controls
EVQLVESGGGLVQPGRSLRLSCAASGFTFDDYAMLWVRQAPGKGLEWVSGISDNSGSIGYADSVGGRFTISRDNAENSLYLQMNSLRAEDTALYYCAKVGRGGGYFDYWGQGTLVTVSS,n.d. / n.d. / n.d.,0/9
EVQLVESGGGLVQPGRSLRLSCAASGFTFDEYAMHWVRQAPGKGLEWVSGISWNSGSWGYADCVKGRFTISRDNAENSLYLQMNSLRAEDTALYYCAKVGRGGGYFDYWGQGTLVTVSS,2.78 / 2.32 / 1.94,2/9 (4.86)

Parent in this assay: reference entry 1.86, copy in this library 0.88. Background: pairings of library AAYL51 with three empty control strains gave a value in 21% of cases (median 4.54, 5th percentile 3.26). Values in that range, when seen in few replicates, are hard to tell from nonspecific mating. For each scFv, signals with the empty controls are counted beside the result, with their mean in brackets.

Data: MIT Lincoln Laboratory AlphaSeq set, Engelhart et al. 2022, doi:10.1038/s41597-022-01779-4, as distributed in FLAb.